These results are taken from patent publication US20210355166A1, “ANALGESICS AND METHODS OF USE THEREOF” (priority 2018, published 2021).

Chains of the proteins cited; added tags and fusions are not shown.
UniProt P42866, whole entry: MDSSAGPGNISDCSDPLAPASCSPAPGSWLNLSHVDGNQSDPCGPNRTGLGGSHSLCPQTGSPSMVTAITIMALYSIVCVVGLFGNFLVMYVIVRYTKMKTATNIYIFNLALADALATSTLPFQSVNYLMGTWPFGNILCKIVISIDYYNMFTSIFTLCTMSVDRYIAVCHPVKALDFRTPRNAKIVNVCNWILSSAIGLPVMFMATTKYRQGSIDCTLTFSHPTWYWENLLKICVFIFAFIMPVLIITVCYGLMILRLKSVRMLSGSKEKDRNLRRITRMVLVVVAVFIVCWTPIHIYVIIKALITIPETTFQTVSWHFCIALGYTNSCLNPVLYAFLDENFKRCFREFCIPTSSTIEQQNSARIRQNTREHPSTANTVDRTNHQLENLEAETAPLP

One experiment has as its system C57BL/6 mice. Description: Nociception (analgesia) testing on 54 C hotplate. The experiment is classed as in vivo. Particulars: Mus musculus, sc, read-out: ED50, hotplate, systemic administration s.c. How it is done:
Experiments were performed under the guidelines of the Australian code of practice for the care and use of animals for scientific purposes (National Health and Medical Research Council, Australia, 7th Edition). Great care was taken to minimise animal suffering during these experiments and to reduce the number of animals used. […] Food and water was available ad libitum. Mice were given at least 7 days to habituate to housing facilities prior to handling, and handled by the experimenter for 4 days prior to testing. […] The experimenter was blind to all drugs tested. Animals were tested on a 54° C. hotplate, with a maximum cut-off time of 20 seconds to prevent tissue damage. Endpoints were hindpaw lick, hindpaw flutter or jump. […] The percentage of maximal possible effects (% MPE) were calculated as follows: % MPE=(test latency−baseline latency)/(cutoff latency−baseline latency)×100%. The cut-off latency was 20 seconds. Significant differences were assessed with a two-way ANOVA and Tukey's post hoc multiple comparisons test. […] Doses were transformed to the logarithm of μmol/kg. A two-way ANOVA was used to compare data at equimolar doses.

In the next experiment the target is T1, mouse MOPr (mMOPr) (Mus musculus, UniProt P42866).
T1 construct: expressed in transfected cells
Format: cell-based.

Another experiment has as its target MOPr (Mus musculus, UniProt P42866). The experiment in a line: MOPr internalisation (endocytosis assay) in AtT20 cells. Format: cell-based. Details: expressed in transfected cells. How it is done: Imaging parameters including laser intensity, photomultiplier tube (PMT) voltage and offset remained constant for each experiment. Mean fluorescence intensity was measured using ImageJ software to calculate mean gray value of an area defined […] a single cell. Each experiment was normalized to the mean of untreated cells as 0% and the mean of cells treated with saturating concentrations of Met-enk (30 μM) as 100%.
MOPr internalisation was assessed immunocytochemically after 30 minutes of agonist treatment (FIGS. 8, 9). […] Endocytosis assay: Receptor internalization was quantified using a ratiometric staining of membrane and internalized receptors. […] Cells were then incubated for an additional 30 min with indicated agonist at 37° C. To unbind the M1 anti-FLAG antibody from the surface receptors, cells were quickly washed three times with ice-cold PBS lacking Mg^2+ and Ca^2+ and supplemented with 0.04% EDTA (pH 7.4).

On to `CN1CC[C@]23c4c5ccc(O)c4O[C@H]2[C@@H](O)C=C[C@H]3[C@H]1C5` [morphine, reference compound], for which, in the experiment with C57BL/6 mice, the ED50 was found to be 27 µmol/kg.
Regarding `COc1ccsc1CNCC[C@@]1(c2ccccn2)CCOC2(CCCC2)C1` [oliceridine], on mouse MOPr (mMOPr) (AtT20 mMOPr cells after β-CNA), the “GIRK (80% knockdown) log(EC50)” value is listed as −7.6 ± 0.06. In addition, on mouse MOPr (mMOPr) (operational model fit), the “GIRK (80% knockdown) KA” value is −7.3 ± 0.09.
With met-enkephalin, the “Internalisation log(tau/KA)” value on MOPr turned out to be 6.1 ± 0.03.
